This is an account of results in ChEMBL document CHEMBL3271962 (J Med Chem, 1976).

Sequences of proteins named here, by UniProt entry; tags and fusion partners are left off.
UniProt Q63380, whole entry: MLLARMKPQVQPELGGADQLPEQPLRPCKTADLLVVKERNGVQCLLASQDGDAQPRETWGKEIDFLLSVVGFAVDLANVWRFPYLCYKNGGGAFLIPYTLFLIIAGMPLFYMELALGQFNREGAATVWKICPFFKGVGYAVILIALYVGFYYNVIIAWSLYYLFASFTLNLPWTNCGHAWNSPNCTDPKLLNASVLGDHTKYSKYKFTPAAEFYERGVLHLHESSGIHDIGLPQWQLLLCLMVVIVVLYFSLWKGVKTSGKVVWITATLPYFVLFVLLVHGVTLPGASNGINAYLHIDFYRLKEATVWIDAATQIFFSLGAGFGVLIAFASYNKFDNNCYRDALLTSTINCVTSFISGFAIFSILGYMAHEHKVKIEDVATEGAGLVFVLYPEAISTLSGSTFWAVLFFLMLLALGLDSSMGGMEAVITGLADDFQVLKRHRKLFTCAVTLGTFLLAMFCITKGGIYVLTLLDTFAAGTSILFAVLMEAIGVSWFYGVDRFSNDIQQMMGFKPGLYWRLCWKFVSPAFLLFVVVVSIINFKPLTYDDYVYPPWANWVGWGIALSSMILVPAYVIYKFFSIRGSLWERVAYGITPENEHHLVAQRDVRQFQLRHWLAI

The target of the experiment is Transporter (Rattus norvegicus, UniProt Q63380). The experiment can be described thus: Inhibition of [3H]norepinephrine uptake at NET expressed in rat hypothalamic homogenate containing synaptosomes after 5 mins by scintillation counting analysis. The format is subcellular, Brain.

Compound `CC(N)Cc1ccccc1` (racemic) [AMPHETAMINE] showed an IC50 of 0.2 µM.

Broadly, the IC50 is the concentration needed to halve the response being measured.
